Test results taken from ChEMBL document CHEMBL1133711 (J Med Chem, 2000).

By UniProt entry, the sequences of proteins in these tests, tags left out.
UniProt P50406, whole entry: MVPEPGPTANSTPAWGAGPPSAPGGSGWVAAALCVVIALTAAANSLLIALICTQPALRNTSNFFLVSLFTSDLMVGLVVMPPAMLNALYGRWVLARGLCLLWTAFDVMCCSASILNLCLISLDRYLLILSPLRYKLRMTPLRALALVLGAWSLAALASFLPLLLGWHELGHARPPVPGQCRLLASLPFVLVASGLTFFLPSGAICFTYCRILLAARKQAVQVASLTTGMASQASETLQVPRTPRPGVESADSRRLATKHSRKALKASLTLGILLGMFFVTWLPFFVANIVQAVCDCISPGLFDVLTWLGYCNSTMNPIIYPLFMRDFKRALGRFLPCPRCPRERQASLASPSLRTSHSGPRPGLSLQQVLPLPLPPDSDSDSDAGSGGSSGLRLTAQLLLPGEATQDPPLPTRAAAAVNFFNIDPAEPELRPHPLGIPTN

Target: 5-hydroxytryptamine receptor 6 (Homo sapiens, UniProt P50406)
Experiment: Binding affinity for human 5-hydroxytryptamine 6 receptor expressed in HEK 293 human embryonic kidney cells, [3H]-lysergic acid diethylamide as radioligand
Type: cell-based, HEK293

COc1ccc2[nH]cc(CCN(C)C)c2c1 [MEBUFOTENIN]
Ki: 78 nM
